PMC10698726 (Molecular Pharmaceutics, 2023)

Assays:
OCT1 = target: T1, OCT1 (Homo sapiens, UniProt O15245); settings: ref 1 (Tzvetkov et al., 2018, supplement); cited from earlier work
T1 sequence (O15245 1-554): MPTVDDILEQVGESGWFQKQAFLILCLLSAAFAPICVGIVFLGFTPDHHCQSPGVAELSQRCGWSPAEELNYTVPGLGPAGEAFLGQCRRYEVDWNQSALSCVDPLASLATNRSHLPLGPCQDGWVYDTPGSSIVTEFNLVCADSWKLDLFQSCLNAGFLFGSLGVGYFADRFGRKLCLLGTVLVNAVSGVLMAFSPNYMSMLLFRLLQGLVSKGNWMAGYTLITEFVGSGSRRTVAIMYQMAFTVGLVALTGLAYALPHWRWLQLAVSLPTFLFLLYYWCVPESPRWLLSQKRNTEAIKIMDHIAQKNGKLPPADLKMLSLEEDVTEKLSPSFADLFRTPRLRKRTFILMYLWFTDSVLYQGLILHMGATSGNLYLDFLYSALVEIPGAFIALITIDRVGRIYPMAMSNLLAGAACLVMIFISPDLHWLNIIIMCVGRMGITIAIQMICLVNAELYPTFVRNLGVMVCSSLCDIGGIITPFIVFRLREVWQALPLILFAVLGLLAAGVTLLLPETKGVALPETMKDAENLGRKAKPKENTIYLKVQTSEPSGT

OCT2 = target: T2, OCT2 (Homo sapiens, UniProt O15244)
T2 sequence (O15244 1-555): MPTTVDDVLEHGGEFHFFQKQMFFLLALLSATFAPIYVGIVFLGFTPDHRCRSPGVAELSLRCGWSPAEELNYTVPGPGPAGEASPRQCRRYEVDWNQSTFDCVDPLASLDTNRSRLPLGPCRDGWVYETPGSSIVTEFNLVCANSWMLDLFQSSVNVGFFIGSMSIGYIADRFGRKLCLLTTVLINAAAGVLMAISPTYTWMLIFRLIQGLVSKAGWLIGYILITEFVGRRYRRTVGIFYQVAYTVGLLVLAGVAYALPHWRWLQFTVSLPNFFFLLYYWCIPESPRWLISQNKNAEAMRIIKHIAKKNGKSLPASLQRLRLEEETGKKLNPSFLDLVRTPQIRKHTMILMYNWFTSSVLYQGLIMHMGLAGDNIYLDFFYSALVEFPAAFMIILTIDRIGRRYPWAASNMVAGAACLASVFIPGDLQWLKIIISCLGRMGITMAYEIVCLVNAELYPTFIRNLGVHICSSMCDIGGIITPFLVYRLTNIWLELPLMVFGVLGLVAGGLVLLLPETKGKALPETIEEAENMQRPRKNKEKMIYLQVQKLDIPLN

Compound | vmax ± SEM [pmol × mg Protein−1 × min−1] (OCT1) | difference between enantiomers in the inhibition of OCT2 (in words) (OCT2)
CC(Cc1ccc(O)cc1)NCC(O)c1cc(O)cc(O)c1 (racemic) [rac Fenoterol, Fenoterol] | 57.2 pmol × mg Protein−1 × min−1 | –
C=C[C@H]1C[N@@]2CC[C@H]1C[C@H]2[C@H](O)c1ccnc2ccc(OC)cc12 [Quinine] | – | noticeable differences
